Test results reported in PubChem BioAssay AID652197 (Broad Institute, 2013).
The entries are a selection whose mix differs from that of the whole data set. Some structures show a salt or complex split into parts, the way the source records it. Calls of active or inactive are those of the source.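 The calls were made as follows: active = mean replicate inhibition of at least 30%, or all replicates individually reaching that 30% level; inactive = mean below 30% and not every replicate reaching it.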

Chains of the proteins cited; added tags and fusions are not shown.
UniProt Q9NZ08, whole entry: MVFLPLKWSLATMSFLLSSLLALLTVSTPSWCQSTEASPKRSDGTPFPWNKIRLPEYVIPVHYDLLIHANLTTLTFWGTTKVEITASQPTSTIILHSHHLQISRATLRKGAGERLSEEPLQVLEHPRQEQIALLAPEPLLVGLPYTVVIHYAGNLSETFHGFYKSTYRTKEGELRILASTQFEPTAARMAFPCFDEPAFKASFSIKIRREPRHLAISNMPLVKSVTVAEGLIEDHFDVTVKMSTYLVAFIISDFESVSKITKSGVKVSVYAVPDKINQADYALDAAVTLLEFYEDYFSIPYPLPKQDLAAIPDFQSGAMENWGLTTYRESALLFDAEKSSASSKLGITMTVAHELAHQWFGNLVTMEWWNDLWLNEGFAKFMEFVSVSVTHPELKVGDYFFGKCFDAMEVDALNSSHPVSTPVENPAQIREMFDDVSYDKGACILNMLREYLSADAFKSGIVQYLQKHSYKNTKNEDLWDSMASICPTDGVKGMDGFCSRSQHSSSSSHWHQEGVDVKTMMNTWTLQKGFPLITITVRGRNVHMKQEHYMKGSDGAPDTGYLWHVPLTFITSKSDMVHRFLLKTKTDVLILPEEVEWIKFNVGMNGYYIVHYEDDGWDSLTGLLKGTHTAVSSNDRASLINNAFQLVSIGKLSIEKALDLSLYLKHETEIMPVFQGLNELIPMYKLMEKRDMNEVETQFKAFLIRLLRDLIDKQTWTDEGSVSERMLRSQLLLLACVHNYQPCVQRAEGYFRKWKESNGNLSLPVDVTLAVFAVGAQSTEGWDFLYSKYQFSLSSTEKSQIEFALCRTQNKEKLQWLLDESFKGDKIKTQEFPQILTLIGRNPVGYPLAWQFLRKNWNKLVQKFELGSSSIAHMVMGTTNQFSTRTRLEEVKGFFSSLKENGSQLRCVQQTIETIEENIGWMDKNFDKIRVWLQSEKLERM

target: Endoplasmic reticulum aminopeptidase 1 (Homo sapiens) (UniProt Q9NZ08); test: human ERAP1 aminopeptidase inhibitors, primary screen, biochemical, single point, plate reader (AID 652197); settings: recombinant ERAP1, Leu-AMC fluorescence, 60 min; at 10.7 µM; stronger effect = higher value;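 also: 0% = neutral control wells and 100% = L-leucinethiol positive control wells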

| SMILES | inhibition |
| --- | --- |
| O=[N+]([O-])c1cc([N+](=O)[O-])c(C(F)(F)F)c([N+](=O)[O-])c1O | inactive: 3.75% |
| CP(=O)(Nc1ccc(SC(F)(F)F)cc1)Oc1ccc(F)cc1 (stereo not given) | inactive: 16.5% |
| CCOP(=O)(CC)OCC | inactive: 3.53% |
| O=[N+]([O-])c1ccc(OP2(=O)COCCO2)cc1 (stereo not given) | inactive: 2.43% |
| Cc1cc(-c2cccc3ccccc23)c(C)cn1.O=[N+]([O-])c1cc([N+](=O)[O-])c(O)c([N+](=O)[O-])c1 | inactive: 0.709% |
| O=[N+]([O-])c1cc([N+](=O)[O-])c(NCC2CCS(=O)(=O)C2)c([N+](=O)[O-])c1 (stereo not given) | inactive: 6.43% |
| Cc1c(C(c2ccc3c(c2)OCO3)c2c(C)n(C)n(-c3ccccc3)c2=O)c(=O)n(-c2ccccc2)n1C.O=[N+]([O-])c1cc([N+](=O)[O-])c(O)c([N+](=O)[O-])c1 | inactive: 8.76% |
| COc1ccc(NP(C)(=O)Oc2ccccc2OC)cc1 (stereo not given) | inactive: 4.5% |
| Cc1c([N+](=O)[O-])cc([N+](=O)[O-])c(Br)c1[N+](=O)[O-] | inactive: 6.1% |
| O=[N+]([O-])c1cc([N+](=O)[O-])c(OC2CCCCC2O)c([N+](=O)[O-])c1 (stereo not given) | inactive: 1.28% |
| CCN(CC)CCCNc1ccccc1[N+](=O)[O-].O=[N+]([O-])c1cc([N+](=O)[O-])c(O)c([N+](=O)[O-])c1 | inactive: 7.52% |
| COc1ccc(OP(C)(=O)Nc2ccc(SC(F)(F)F)cc2)cc1 (stereo not given) | inactive: 0.603% |
| O=C(OC1CN2CCC1CC2)c1ccc([N+](=O)[O-])cc1 (stereo not given) | inactive: 3.31% |
| O=C(OCCN1CCN(CCOCc2ccccc2)CC1)C(O)(c1ccccc1)c1ccccc1 | inactive: 1.53% |
| COc1ccc2c(c1O)-c1c(O)c(OC)cc3c1[C@H](C2)[N+](C)(C)CC3.O=[N+]([O-])c1cc([N+](=O)[O-])c([O-])c([N+](=O)[O-])c1[O-] | inactive: 2.11% |
| O=[N+]([O-])c1cc([N+](=O)[O-])c(Nc2ccc(Cl)cc2)c([N+](=O)[O-])c1 | inactive: 2.49% |
| CP(=O)(Nc1ccccc1F)Oc1ccccc1 (stereo not given) | inactive: -0.665% |
| CC(C)c1ccc(OP(C)(=O)Nc2ccc(SC(F)(F)F)cc2)cc1 (stereo not given) | inactive: 5.69% |
| O=[N+]([O-])c1cc([N+](=O)[O-])c(Nc2ccccn2)c([N+](=O)[O-])c1 | inactive: 1.65% |
| CP(=O)(OCCOc1ccccc1)OCCOc1ccccc1 | inactive: -5.3% |

| SMILES | inhibition |
| --- | --- |
| CP(=O)(Nc1ccc(Cl)cc1Cl)Oc1ccccc1 (stereo not given) | inactive: 0.477% |
| CCCCCCCCCCCCCCCC1C[N+](C)(C)CCOP(C)(=O)O1 (stereo not given) | active: 69% |
| Cc1cc(C)cc(OP(C)(=O)Nc2cccc(C(F)(F)F)c2)c1 (stereo not given) | inactive: -2.44% |
| O=C1C(O)=C([N+](=O)[O-])C(=O)C(O)=C1[N+](=O)[O-] | inactive: -3.64% |
| Nc1ccc2c(ccc3cccnc32)n1.O=[N+]([O-])c1cc([N+](=O)[O-])c(O)c([N+](=O)[O-])c1 | inactive: 2.01% |
| CCOC(=O)c1ccc(NP(C)(=O)Oc2ccc(Cl)cc2)cc1 (stereo not given) | inactive: -0.391% |
| COc1ccccc1OP(C)(=O)Nc1ccccc1Br (stereo not given) | inactive: -3.21% |
| CN(C)C(=O)c1c([N+](=O)[O-])cc([N+](=O)[O-])cc1[N+](=O)[O-] | inactive: -0.087% |
| O=C(OCCCN1CCCC1)C(O)(c1ccccc1)C1CCCCC1 (stereo not given) | inactive: 4.39% |
| CCc1ccc(OP(C)(=O)Nc2cccnc2)cc1 (stereo not given) | inactive: -4.77% |
| CCOC(=O)c1ccc(NP(C)(=O)Oc2ccc(OC)cc2)cc1 (stereo not given) | inactive: 2.21% |
| O=[N+]([O-])c1cc([N+](=O)[O-])c(O)c([N+](=O)[O-])c1.c1ccc(Oc2ccncc2)cc1 | inactive: 5.51% |
| CP(=O)(Nc1ccccn1)Oc1ccc(Cl)cc1 (stereo not given) | inactive: 0.105% |
| CP(=O)(Oc1ccccc1)OC(c1ccccc1)C(F)(F)F (stereo not given) | inactive: 6.88% |
| CP(=O)(Nc1ccc(SC(F)(F)F)cc1)Oc1ccc(Cl)cc1 (stereo not given) | inactive: -0.09% |
| CCc1ccc(OP(C)(=O)N2CCN(c3ccc([N+](=O)[O-])cc3)CC2)cc1 (stereo not given) | inactive: 2.8% |
| CP(=O)(NC(=O)Nc1ccccc1)Oc1ccccc1 (stereo not given) | inactive: -2.29% |
| CP(=O)(Nc1ccccc1Br)Oc1ccccc1 (stereo not given) | inactive: 1.97% |
| COc1ccccc1OP(C)(=O)Nc1ccccc1 (stereo not given) | inactive: 0.094% |
| Cc1cc(C)cc(OP(C)(N)=O)c1 (stereo not given) | inactive: 0.097% |

| SMILES | inhibition |
| --- | --- |
| COc1ccccc1OP(C)(=O)Nc1cc(Cl)ccc1C (stereo not given) | inactive: -0.023% |
| O=[N+]([O-])c1cc([N+](=O)[O-])c(Nc2cccnc2)c([N+](=O)[O-])c1 | inactive: 1.27% |
| O=[N+]([O-])c1ccc2c(c1)C=Nc1ccccc1O2 | inactive: 0.298% |
| Cc1cccc(C)c1OP(C)(N)=O (stereo not given) | inactive: -1.12% |
| CC(C)(C)c1ccc(OP(C)(=O)Nc2ccc(SC(F)(F)F)cc2)cc1 (stereo not given) | inactive: -0.759% |
| COc1ccccc1-c1ccccn1.O=[N+]([O-])c1cc([N+](=O)[O-])c(O)c([N+](=O)[O-])c1 | inactive: 11.5% |
| CP(=O)(Nc1cccc(Br)c1)Oc1ccccc1 (stereo not given) | inactive: -3.15% |
| Cc1cc(C)cc(OP(C)(=O)Nc2ccccn2)c1 (stereo not given) | inactive: -0.669% |
| COc1ccccc1OP(C)(=O)Nc1cccc(Br)c1 (stereo not given) | inactive: -4.47% |
| CCOC(=O)c1ccc(NP(C)(=O)Oc2cc(C)cc(C)c2)cc1 (stereo not given) | inactive: -0.056% |
| Cc1cc(C)cc(OP(C)(=O)Nc2ccc(C)cc2C)c1 (stereo not given) | inactive: 0.199% |
| O=C(O)c1cccc(Nc2c([N+](=O)[O-])cc([N+](=O)[O-])cc2[N+](=O)[O-])c1 | inactive: 2.65% |
| CN1CCCCC1COC(=O)C1(O)c2ccccc2CCc2ccccc21 (stereo not given) | inactive: 0.355% |
| COc1ccc(-c2ccccn2)cc1.O=[N+]([O-])c1cc([N+](=O)[O-])c(O)c([N+](=O)[O-])c1 | inactive: 5.88% |
| CCCOc1ccc(NP(C)(=O)Oc2ccc(Cl)cc2)cc1 (stereo not given) | inactive: 2.14% |
| CCOC(=O)C(CC)C1=NC(C)(C)Cc2ccccc21.O=[N+]([O-])c1cc([N+](=O)[O-])c(O)c([N+](=O)[O-])c1 (stereo not given) | inactive: 7.65% |
| O=[N+]([O-])c1cc([N+](=O)[O-])c(Nc2nnnn2CCO)c([N+](=O)[O-])c1 | inactive: 5.86% |
| O=[N+]([O-])c1cc([N+](=O)[O-])c(-c2cnn(-c3ccccc3)c2)c([N+](=O)[O-])c1 | inactive: -0.144% |
| O=[N+]([O-])c1cc([N+](=O)[O-])c(-n2nnc3ccccc32)c([N+](=O)[O-])c1 | inactive: 2.67% |
| CN(Cc1cccnc1)C(=O)COc1ccc(Cl)c(Cl)c1.O=[N+]([O-])c1cc([N+](=O)[O-])c(O)c([N+](=O)[O-])c1 | inactive: 1.54% |
